ChEMBL document CHEMBL1134395, “Angular methoxy-substituted furo- and pyranoquinolinones as blockers of the voltage-gated potassium channel Kv1.3” (J Med Chem, 2001)

Sequences of proteins named here, by UniProt entry; tags and fusion partners are left off.
UniProt P16390, whole entry: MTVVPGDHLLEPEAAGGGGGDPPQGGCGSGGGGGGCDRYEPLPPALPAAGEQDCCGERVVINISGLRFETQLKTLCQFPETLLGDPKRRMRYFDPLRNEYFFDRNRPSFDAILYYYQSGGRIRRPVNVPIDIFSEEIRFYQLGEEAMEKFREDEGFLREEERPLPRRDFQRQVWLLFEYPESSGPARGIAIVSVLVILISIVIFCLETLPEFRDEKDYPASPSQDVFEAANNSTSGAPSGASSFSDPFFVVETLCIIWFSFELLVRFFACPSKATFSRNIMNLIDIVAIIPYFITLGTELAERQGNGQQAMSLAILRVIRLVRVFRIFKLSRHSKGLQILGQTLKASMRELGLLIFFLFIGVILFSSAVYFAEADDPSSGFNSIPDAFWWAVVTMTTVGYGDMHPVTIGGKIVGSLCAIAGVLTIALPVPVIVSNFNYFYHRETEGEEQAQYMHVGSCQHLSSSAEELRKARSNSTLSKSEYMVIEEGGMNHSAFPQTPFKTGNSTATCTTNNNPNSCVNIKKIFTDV

Experiments:
[1] = target: Potassium voltage-gated channel subfamily A member 3 (Mus musculus) (UniProt P16390)
[2] = target: Potassium voltage-gated channel subfamily A member 3 (Mus musculus) (UniProt P16390); remark: listed apart in the source

## COc1ccc2c(c1)c1oc(C(C)C)cc1c(=O)n2C
[1]
  S: 7.6

## COc1cc2nc3occc3c(OC)c2cc1OC [KOKUSAGININE]
[2]
  S: 4.1

## COc1ccc2c(c1)c1c(c(=O)n2C)CCC(C)(C)O1
[1]
  S: 2.3

## COc1ccc2c(c1)c1c(c(=O)n2C)C=CC(C)(C)O1
[1]
  S: 3.1
